Data as given in ChEMBL document CHEMBL4680248 (Eur J Med Chem, 2020).

Biological target: T1, GABA-A receptor; alpha-1/beta-3/gamma-2 (Homo sapiens, UniProt P14867+P18507+P28472)
T1 sequence (P14867 whole entry): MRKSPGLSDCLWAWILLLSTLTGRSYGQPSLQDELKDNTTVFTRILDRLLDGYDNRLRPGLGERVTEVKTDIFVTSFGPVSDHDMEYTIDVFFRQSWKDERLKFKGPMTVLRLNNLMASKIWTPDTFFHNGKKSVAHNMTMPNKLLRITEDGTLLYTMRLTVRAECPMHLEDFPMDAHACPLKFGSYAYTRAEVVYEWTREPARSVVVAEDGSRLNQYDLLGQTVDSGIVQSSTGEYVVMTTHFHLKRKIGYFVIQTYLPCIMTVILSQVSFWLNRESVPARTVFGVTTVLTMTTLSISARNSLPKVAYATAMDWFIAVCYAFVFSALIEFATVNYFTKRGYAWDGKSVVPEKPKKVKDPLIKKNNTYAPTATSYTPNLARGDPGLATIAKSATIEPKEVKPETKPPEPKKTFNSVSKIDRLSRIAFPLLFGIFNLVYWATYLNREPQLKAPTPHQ
T1 sequence (P18507 whole entry): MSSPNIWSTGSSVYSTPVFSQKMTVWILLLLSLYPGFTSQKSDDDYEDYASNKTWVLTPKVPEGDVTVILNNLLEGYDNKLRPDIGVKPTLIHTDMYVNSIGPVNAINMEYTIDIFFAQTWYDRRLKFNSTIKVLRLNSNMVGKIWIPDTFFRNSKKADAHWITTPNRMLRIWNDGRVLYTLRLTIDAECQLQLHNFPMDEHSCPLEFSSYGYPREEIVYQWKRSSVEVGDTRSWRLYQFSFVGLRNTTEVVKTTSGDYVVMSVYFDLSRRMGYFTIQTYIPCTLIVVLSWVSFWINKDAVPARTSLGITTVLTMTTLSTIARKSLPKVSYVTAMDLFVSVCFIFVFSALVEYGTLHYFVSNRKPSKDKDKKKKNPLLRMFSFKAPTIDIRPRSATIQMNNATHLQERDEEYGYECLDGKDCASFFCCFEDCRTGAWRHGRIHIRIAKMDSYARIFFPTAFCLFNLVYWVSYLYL
T1 sequence (P28472 whole entry): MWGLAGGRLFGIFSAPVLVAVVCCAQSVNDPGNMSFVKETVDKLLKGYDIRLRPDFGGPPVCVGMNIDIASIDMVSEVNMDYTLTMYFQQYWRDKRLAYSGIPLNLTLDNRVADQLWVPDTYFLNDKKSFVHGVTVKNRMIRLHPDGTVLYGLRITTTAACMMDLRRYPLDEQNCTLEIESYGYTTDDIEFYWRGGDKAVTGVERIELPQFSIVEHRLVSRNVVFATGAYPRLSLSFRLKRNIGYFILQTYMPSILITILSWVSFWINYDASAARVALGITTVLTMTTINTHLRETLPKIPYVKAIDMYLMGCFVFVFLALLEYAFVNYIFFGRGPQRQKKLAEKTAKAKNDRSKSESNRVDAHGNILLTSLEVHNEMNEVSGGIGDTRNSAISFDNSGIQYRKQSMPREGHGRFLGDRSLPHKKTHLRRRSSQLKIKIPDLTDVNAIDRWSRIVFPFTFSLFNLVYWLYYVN
Experiment: Inhibition of [3H]pTFD-di-iPr-BnOH labelling of GABAA alpha1beta3gamma2L (unknown origin) expressed in Xenopus laevis oocytes assessed as reduction in photoincorporation at beta subunit measured after 30 mins in presence of GABA by liquid scintillation counting method
Type: cell-based

Work on C=CCC1(c2cccc(C3(C(F)(F)F)N=N3)c2)C(=O)NC(=O)N(C)C1=O (stereo unspecified) yielded an IC50 of 400 nM.
